Legend:
[1] = system: Pseudomonas fluorescens FW300-N2E2
Experimental: (§1)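 Dose-response growth inhibition of groundwater bacterial isolates (Rhodanobacter sp. FW104-10B01, Pseudomonas fluorescens FW300-N2E2) by 80 inorganic ion salts and NTA complexes in 384-well plates at 30 °C, in several media and electron-acceptor conditions. OD600 was read at 24 h (48 h for N2E2 vs 10B01 comparisons in R2A) and normalised to water (100% growth) and 0.2 g/L chloramphenicol (0% growth) controls. IC50 was fitted with the drc R package from at least two biological replicate curves; > and < give the highest or lowest concentration screened.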

[2] = system: Rhodanobacter sp. FW104-10B01
Experimental: as §1

[O-][Br+2]([O-])O [Sodium bromate]
Conditions | IC50 growth inhibition [mM]
[1], medium / electron acceptor: N2E2 Glucose/aerobic | 318
[1], medium / electron acceptor: N2E2 Glucose/aerobic 0.25xMinerals | 290
[1], medium / electron acceptor: N2E2 Glucose/aerobic (2) | 105
[1], medium / electron acceptor: N2E2 KB/aerobic | 43.8
[1], medium / electron acceptor: N2E2 LB/aerobic | 261
[1], medium / electron acceptor: N2E2 LB/aerobic (2) | 284
[1], medium / electron acceptor: N2E2 LB/nitrate | 7.77
[1], medium / electron acceptor: N2E2 Lactate/aerobic | > 500
[1], medium / electron acceptor: N2E2 R2A/aerobic | 166
[2], medium / electron acceptor: 10B01 R2A/aerobic | > 500
[2], medium / electron acceptor: 10B01 R2A/nitrate | > 500

Source: the supplement of paper PMC6461962
